We go through 2 compounds from PMC11338008, “Development and validation of CYP26A1 inhibition assay for high-throughput screening” (Biotechnology journal, 2024).

Chains of the proteins cited; added tags and fusions are not shown. Lines headed by an entry give the natural chain unless they say otherwise; changes in a name come on top.
UniProt O43174: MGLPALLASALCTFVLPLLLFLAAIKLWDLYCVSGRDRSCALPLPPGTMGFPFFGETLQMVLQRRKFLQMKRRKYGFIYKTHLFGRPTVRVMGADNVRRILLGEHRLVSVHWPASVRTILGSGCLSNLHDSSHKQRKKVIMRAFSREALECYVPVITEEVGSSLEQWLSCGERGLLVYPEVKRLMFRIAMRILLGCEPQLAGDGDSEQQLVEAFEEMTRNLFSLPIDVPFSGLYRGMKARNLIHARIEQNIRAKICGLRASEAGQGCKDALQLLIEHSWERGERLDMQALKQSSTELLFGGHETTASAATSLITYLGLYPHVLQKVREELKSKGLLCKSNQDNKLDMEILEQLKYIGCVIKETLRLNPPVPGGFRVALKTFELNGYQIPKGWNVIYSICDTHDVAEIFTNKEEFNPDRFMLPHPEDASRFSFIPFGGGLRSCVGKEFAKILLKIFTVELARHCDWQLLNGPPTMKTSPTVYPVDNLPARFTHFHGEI

Where two headings read alike, the source gives them in different places.

The assay concerns the target recombinant wild-type human CYP26A1 enzyme (Homo sapiens, UniProt O43174). Put plainly: P450-Glo CYP26A1 inhibition assay (luciferin-BE substrate, 1536-well). The following applies: for Maximum response: normalized to positive control atRA (−100%) and DMSO (0%).
[1] abbreviates: mean ± SD from three experiments, 2 μM luciferin-BE, active = maximum response greater than 40%.
The mark [2] stands for this setting: mean ± SD from three experiments.

Turning to `CC(C)OP(=S)(OC(C)C)SCCNS(=O)(=O)c1ccccc1`, the “CYP26A1 inhibition, result in words” value was “novel CYP26A1 inhibitors”. The IC50 under setting [1] was 39.3 µM. Also, the Maximum response under setting [2] is recorded as −93.3 ± 1.7%. In addition, for the setting “read-out: IC50 (Figure 4 concentration-response curves), values printed in Figure 4 legend, three experiments”, the IC50 was 32.5 µM.
Turning to `O=C1C2CC=CCC2C(=O)N1SC(Cl)(Cl)C(Cl)Cl` (stereo not drawn), under setting [1], the IC50 was determined as 4.6 µM. Also, under setting [2], the Maximum response is reported as −108.27 ± 3.6%.
